In this test the target is NPY4R (Homo sapiens, UniProt P50391). The test is described as follows: effect on Y2Receptor family: NPY4R. It is filed as cell-based.

Chains of the proteins cited; added tags and fusions are not shown.
UniProt P50391, whole entry, species assumed: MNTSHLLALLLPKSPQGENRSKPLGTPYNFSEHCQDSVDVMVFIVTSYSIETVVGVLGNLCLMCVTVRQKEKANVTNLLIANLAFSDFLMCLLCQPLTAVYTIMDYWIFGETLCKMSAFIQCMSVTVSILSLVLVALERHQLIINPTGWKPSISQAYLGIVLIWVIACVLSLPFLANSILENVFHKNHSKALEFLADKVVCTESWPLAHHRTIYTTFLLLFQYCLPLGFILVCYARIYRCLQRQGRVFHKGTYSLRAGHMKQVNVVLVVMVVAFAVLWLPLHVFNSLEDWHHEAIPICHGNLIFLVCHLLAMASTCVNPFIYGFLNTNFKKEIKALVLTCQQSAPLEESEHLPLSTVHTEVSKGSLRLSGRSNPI

`CC[C@H](C)[C@H](N)C(=O)N[C@@H](CCCCN)C(=O)N1CCC[C@H]1C(=O)N[C@@H](CCC(=O)O)C(=O)N[C@@H](C)C(=O)N1CCC[C@H]1C(=O)NCC(=O)N[C@@H](CCC(=O)O)C(=O)N[C@@H](CC(=O)O)C(=O)N[C@@H](C)C(=O)N[C@@H](CO)C(=O)N1CCC[C@H]1C(=O)N[C@@H](CCC(=O)O)C(=O)N[C@@H](CCC(=O)O)C(=O)N[C@@H](CC(C)C)C(=O)N[C@@H](CC(N)=O)C(=O)N[C@@H](CCCNC(=N)N)C(=O)N[C@@H](Cc1ccc(O)cc1)C(=O)N[C@@H](Cc1ccc(O)cc1)C(=O)N[C@@H](C)C(=O)N[C@@H](CO)C(=O)N[C@@H](CC(C)C)C(=O)N[C@@H](CCCNC(=N)N)C(=O)N[C@@H](Cc1c[nH]cn1)C(=O)N[C@@H](Cc1ccc(O)cc1)C(=O)N[C@@H](CC(C)C)C(=O)N[C@@H](CC(N)=O)C(=O)N[C@@H](CC(C)C)C(=O)N[C@H](C(=O)N[C@H](C(=O)N[C@@H](CCCNC(=N)N)C(=O)N[C@@H](CCC(N)=O)C(=O)N[C@@H](CCCNC(=N)N)C(=O)N[C@@H](Cc1ccc(O)cc1)C(N)=O)[C@@H](C)O)C(C)C` [PYY(3-36)] gave an NPY4R (listed as PYY(3 -36) charge 1) of 162 nM and an NPY4R (listed as PYY(3 -36) charge 2) of 131 nM.

The values are drawn from patent US10407511B2, “Covalently linked helicar-anti-helicar antibody conjugates and uses thereof” (Hoffmann-La Roche Inc., priority 2014, dated 2019).
